From patent US20250257034A1, “INDOLE DERIVATIVES AS SEROTONERGIC AGENTS USEFUL FOR THE TREATMENT OF DISORDERS RELATED THERETO” (priority 2023, published 2025) come the findings set out here.

Protein sequences, listed by entry. Tags and fused reporters are not part of them.
UniProt P08908, whole entry: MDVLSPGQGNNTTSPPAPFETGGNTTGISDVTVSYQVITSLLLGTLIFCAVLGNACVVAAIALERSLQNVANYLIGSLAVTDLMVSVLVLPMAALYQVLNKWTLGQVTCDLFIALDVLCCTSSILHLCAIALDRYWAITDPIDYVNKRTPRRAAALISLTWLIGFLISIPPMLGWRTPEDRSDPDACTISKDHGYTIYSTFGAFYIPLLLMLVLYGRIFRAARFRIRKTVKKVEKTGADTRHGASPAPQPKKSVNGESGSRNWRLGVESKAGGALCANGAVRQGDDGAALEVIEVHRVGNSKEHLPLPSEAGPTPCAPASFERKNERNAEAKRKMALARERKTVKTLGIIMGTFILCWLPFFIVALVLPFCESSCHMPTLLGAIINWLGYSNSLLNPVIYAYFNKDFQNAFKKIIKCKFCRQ

Each structure is given as a SMILES string. Like-named read-outs stand apart in the source and are kept apart here.

In test [1] the target is T1, human 5-HT1A receptor (Homo sapiens, UniProt P08908). The experiment in a line: Human 5HT1A cAMP assay in CHO-K1 cells. It counts as cell-based. Further details: expressed in transfected cells. The settings on record: for EC50: cAMP assay with forskolin. The method, then: Compound potency (EC50) and efficacy (Max response) against the human 5-HT1A receptor in stably transfected CHO-K1 cells was determined in a GPCR cell-based cAMP assay.
Cells were seeded in a total volume of 20 μL into white walled, 384-well microplates and incubated at 37° C. overnight before analysis. Prior to testing, cell plating media was exchanged with 10 μL of Assay buffer (HBSS+10 mM HE P E S). Briefly, intermediate dilution of sample stocks was performed to generate 4×sample in assay buffer. 5 μL of 4×sample+5 μL of 4×forskolin was added to cells and incubated at 37° C. for 30 minutes. Final assay vehicle concentration was 1%. The results are expressed as a percent efficacy relative to the maximum response of the control ligand (serotonin) in Table 27.
Cells were seeded in a total volume of 20 μL into white walled, 384-well microplates and incubated at 37° C. overnight before analysis. Prior to testing, cell plating media was exchanged with 10 μL of Assay buffer (HBSS+10 mM HEPES). Briefly, intermediate dilution of sample stocks was performed to generate 4×sample in assay buffer. 5 μL of 4×sample +5 μL of 4×forskolin was added to cells and incubated at 37° C. for 30 minutes. Final assay vehicle concentration was 1%. The results are expressed as a percent efficacy relative to the maximum response of the control ligand (serotonin) in Table 56.
On the technique in general: cAMP levels reflect the balance of adenylyl cyclase and phosphodiesterase activity.

Test [2] addresses T1, human 5-HT1A receptor. The experiment in a line: Human 5-HT1A radioligand binding assay ([3H]-8-Hydroxy-DPAT). Also noted: expressed in transfected cells; host or cells: HTR1A&Gα15-CHO. The settings on record: read-out: h5-HT1A, IC50. On the procedure: The objective of this study was to evaluate the binding properties of test compounds on 5-hydroxytryptamine receptor 1A (5-HT1A).
1. The assay buffer was prepared following Table 21 below.
2. 8 doses of reference and test compounds were prepared starting from 10 mM stock solution as required by 5-fold serial dilutions with 100% (v/v) DMSO.
3. UniFilter-96 GF/B plate was pretreated: • i. 50 μl/well of 0.5% (v/v) PEI was added to UniFilter-96 G F/B plates. The plates were sealed and incubated at 4° C. for 3 hrs. • ii. After incubation, the plates were washed 3 times with ice-cold wash buffer (50 mM Tris, pH7.4).
4. Assay plate was prepared: • i. Cell membrane was diluted with assay buffer and 100 μl/well was added to 96 round well plates to reach a concentration of 20 μg/well. • ii. 8 concentrations of reference or test compounds were prepared and 50 μl/well was added to 96 round deep well plates. • iii. […]
10. The plate was read by using a Microbeta^2 microplate counter.
1. For reference and test compounds, the results were expressed as % Inhibition, using the normalization equation: N=100-100x(U-C2)/(C1-C2), where U is the unknown value, C1 is the average of high controls, and C2 is the average of low controls.
2. The IC50 was determined by fitting percentage of inhibition as a […] of compound concentrations with Hill equation using XLfit. […]

The term EC50 denotes the concentration at which the effect is half-maximal. A higher EC50 goes with a less potent agent. Regarding `COc1ccc2[nH]cc(CCN(C)C)c2c1` [Compound 5MeO-DMT], the EC50 at human 5-HT1A receptor [1] (CHO-K1 cells (Table 27)) and at human 5-HT1A receptor [1] (CHO-K1 cells (Table 56)) was 12.7 nM each time. For the same compound, the “Emax (% of serotonin)” value at human 5-HT1A receptor [1] (relative to maximum response of serotonin (Table 27)) and on human 5-HT1A receptor [1] (relative to maximum response of serotonin (Table 56)) was 99.98 % of serotonin throughout.
The IC50 is the midpoint of a concentration-inhibition curve. `COc1ccc2[nH]cc(CCN(C)C)c2c1` [Compound 5-MeO-DMT]: the IC50 on human 5-HT1A receptor [2] ([3H]-8-Hydroxy-DPAT displacement (Table 22)) and at human 5-HT1A receptor [2] ([3H]-8-Hydroxy-DPAT displacement (Table 51)) was 6 nM throughout.
